The subject of assay [1] is Mus musculus. The assay is described as follows: Protection against imiquimod-induced psoriasis model of BALB/c mouse assessed as reduction on histopathological change at 10 to 20 mg/kg, po administered for 13 days by H and E staining based analysis. The format is functional, organism-based. Particulars: dose 10-20 mg/kg, time 13.0 day.
Assay [2] has as its system Mus musculus. The assay is described as follows: Protection against imiquimod-induced psoriasis model of BALB/c mouse assessed as reduction in total psoriasis area at 10 to 20 mg/kg, po administered for 13 days. It is filed as functional, organism-based. Particulars: dose 10-20 mg/kg, time 13.0 day.

This passage reports Activity results from ChEMBL document CHEMBL5042513, “Discovery of 2H-chromone-4-one based sulfonamide derivatives as potent retinoic acid receptor-related orphan receptor γt inverse agonists” (Eur J Med Chem, 2022).

Calls of active or inactive are those of the source. The rule behind the calls is not given here.

In the case of `Cc1nc(N2CCOCC2)ccc1N(CC(C)C)S(=O)(=O)c1ccc2c(c1)C(=O)CC(C1CCOCC1)O2` (configuration not stated), the result in the assay with Mus musculus [1] and in the assay on Mus musculus [2] was Active.
